pIC50: −log10 of the molar value.
Assay: Reversal of P-gp-mediated multidrug resistance in human KB/VCR cells assessed as potentiation of vincristine-induced antiproliferative activity by measuring vincristine IC50 at 2 uM measured after 72 hrs by CCK8 assay (Rvb = 0.51 uM)

`CC(=O)O[C@H]1C[C@@H](C)[C@]23OC(C)(C)[C@H](C[C@H](OC(=O)c4ccccc4)[C@@]2(C)[C@@H]1OC(C)=O)[C@H]3OC(=O)c1ccccc1` showed a pIC50 of 7.15.

From BindingDB's records for doi:10.1021/acs.jnatprod.0c01182 (Chinese Academy of Sciences, 2021)
